Data on one molecule can be found in PMC11294477.

The target of the experiment is T1, Endogenous latrophilin-2 (LPHN2/ADGRL2), O95490.
T1 chain: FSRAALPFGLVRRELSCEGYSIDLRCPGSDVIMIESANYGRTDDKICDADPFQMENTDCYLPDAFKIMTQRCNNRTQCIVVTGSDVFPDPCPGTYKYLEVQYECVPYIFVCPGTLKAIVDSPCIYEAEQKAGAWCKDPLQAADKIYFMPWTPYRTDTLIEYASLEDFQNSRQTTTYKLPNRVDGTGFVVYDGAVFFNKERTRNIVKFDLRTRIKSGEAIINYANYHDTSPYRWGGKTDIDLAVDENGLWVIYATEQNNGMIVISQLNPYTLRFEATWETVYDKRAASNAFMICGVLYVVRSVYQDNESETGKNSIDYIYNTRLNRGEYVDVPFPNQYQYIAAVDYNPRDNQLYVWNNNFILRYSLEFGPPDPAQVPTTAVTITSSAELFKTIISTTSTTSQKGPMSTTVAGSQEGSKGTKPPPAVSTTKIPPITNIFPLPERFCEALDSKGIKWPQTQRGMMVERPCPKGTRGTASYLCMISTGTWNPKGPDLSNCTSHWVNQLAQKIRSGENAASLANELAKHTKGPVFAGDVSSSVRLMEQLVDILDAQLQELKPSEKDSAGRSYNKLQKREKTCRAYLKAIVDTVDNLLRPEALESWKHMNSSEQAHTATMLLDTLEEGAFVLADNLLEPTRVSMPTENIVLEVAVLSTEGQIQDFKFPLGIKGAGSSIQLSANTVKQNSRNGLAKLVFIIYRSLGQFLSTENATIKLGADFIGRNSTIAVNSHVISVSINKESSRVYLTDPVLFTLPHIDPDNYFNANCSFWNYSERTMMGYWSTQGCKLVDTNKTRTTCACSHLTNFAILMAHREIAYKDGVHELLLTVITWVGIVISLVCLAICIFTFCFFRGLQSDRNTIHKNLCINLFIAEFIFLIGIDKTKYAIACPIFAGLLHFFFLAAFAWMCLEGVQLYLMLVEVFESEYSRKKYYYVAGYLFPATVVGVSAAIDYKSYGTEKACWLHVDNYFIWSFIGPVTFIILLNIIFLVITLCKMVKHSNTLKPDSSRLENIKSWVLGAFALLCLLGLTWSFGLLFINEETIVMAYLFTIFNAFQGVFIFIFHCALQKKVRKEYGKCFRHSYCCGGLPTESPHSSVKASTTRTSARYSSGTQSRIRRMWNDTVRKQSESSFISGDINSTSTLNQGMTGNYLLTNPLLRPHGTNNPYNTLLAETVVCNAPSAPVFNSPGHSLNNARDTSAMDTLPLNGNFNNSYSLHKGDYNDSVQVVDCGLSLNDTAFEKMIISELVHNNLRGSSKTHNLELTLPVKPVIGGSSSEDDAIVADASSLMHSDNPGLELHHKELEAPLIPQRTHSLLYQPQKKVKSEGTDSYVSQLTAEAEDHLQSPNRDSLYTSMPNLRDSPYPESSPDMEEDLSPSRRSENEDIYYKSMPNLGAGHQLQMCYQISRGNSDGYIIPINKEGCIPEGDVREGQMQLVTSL
Put plainly: co-immunoprecipitation (GFP-Trap, IB: LPHN2). Particulars: chain shown with the change, read off a plot.

B1: Wild-type Gi1 with internal GFP and four alanines inserted into helix α5 (ins4A), P63096 Q306K (protein)
chain: MGCTLSAEDKAAVERSKMIDRNLREDGEKAAREVKLLLLGAGESGKSTIVKQMKIIHEAGYSEEECKQYKAVVYSNTIQSIIAIIRAMGRLKIDFGDSARADDARQLFVLAGAAEEGFMTAELAGVIKRLWKDSGVQACFNRSREYQLNDSAAYYLNDLDRIAQPNYIPTQQDVLRTRVKTTGIVETHFTFKDLHFKMFDVGGQRSERKKWIHCFEGVTAIIFCVALSDYDLVLAEDEEMNRMHESMKLFDSICNNKWFTDTSIILFLNKKDLFEEKIKKSPLTICYPEYAGSNTYEEAAAYIQCKFEDLNKRKDTKEIYTHFTCATDTKNVQFVFDAVTDVIIKNNLKDCGLF
In the case of B1, the response (LPHN2 (normalized)) is, setting by setting: (Flow, FSS for 2 min) 1; (Static) 0.45.
